Target: Phosphatidylinositol 4,5-bisphosphate 3-kinase catalytic subunit alpha isoform (Homo sapiens, UniProt P42336)

Protein sequences, listed by entry. Tags and fused reporters are not part of them.
UniProt P42336, whole entry: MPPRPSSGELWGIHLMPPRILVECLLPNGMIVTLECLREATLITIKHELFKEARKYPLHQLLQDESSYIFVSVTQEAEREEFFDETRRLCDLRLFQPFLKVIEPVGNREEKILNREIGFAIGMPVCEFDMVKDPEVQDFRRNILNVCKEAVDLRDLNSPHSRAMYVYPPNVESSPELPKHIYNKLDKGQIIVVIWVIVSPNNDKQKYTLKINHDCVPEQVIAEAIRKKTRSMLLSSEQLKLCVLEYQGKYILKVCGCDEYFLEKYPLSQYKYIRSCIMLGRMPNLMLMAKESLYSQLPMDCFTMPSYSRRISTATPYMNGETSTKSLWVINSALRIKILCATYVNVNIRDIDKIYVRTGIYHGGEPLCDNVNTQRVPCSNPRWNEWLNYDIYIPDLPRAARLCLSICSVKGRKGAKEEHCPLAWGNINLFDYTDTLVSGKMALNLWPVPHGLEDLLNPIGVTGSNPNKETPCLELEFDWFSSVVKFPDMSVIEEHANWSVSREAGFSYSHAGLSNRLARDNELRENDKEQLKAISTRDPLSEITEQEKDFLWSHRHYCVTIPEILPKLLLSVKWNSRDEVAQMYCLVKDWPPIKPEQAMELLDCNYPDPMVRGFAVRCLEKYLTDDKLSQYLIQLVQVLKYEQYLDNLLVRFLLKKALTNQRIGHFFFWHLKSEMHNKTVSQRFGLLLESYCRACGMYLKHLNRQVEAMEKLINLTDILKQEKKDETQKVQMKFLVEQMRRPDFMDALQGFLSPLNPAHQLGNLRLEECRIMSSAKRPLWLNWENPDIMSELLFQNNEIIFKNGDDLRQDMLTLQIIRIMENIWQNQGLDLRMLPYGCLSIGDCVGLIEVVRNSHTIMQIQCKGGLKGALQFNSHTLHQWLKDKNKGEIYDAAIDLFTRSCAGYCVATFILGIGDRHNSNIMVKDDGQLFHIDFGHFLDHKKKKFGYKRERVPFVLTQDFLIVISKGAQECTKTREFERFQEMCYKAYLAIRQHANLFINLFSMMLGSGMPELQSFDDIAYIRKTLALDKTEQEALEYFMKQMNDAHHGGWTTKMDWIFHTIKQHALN

IC50: 570 nM
SMILES: Cc1ccc(S(=O)(=O)NCC(C)(C)O)cc1-c1cnc(N)c(-c2cnn(C)n2)c1
